These results are taken from ChEMBL document CHEMBL1138697, “Development of a new class of potential antiatherosclerosis agents: NO-donor antioxidants” (Bioorg Med Chem Lett, 2004).

The structures appear in SMILES notation.

Assay [1] is filed under the species Rattus norvegicus. Kind of assay: Vasodilating activity in rat aorta strip in absence of 1H-[1,2,4]oxadiazolo[4,3-a]quinoxalin-1-one (ODQ).
The species named for assay [2] is Rattus norvegicus. Kind of assay: Vasodilating activity in rat aorta strip in presence of 1H-[1,2,4]oxadiazolo[4,3-a]quinoxalin-1-one (ODQ) at 100 uM.
For assay [3], the species on record is Rattus norvegicus. Briefly: Tested for inhibition of ferrous salt/ascorbate induced lipidic peroxidation of membrane lipid of rat hepatocytes at 1 mM; IA = inactive. Conditions: hepatocyte; call rule not given here.

As to `CCCO[N+](=O)[O-]`, the values for the EC50 in the assay filed under Rattus norvegicus [1] and in the assay filed under Rattus norvegicus [2] were 41 µM and 4.6%, respectively. The IC50 result in the assay listed under Rattus norvegicus [3] was “Not Active”.
